Test results taken from paper PMC12621184, “Synthesis and Pharmacological Characterization of Nociceptin/Orphanin FQ Dimeric Ligands” (Journal of Medicinal Chemistry, 2025).

Chains of the proteins cited; added tags and fusions are not shown.
UniProt P35372, whole entry: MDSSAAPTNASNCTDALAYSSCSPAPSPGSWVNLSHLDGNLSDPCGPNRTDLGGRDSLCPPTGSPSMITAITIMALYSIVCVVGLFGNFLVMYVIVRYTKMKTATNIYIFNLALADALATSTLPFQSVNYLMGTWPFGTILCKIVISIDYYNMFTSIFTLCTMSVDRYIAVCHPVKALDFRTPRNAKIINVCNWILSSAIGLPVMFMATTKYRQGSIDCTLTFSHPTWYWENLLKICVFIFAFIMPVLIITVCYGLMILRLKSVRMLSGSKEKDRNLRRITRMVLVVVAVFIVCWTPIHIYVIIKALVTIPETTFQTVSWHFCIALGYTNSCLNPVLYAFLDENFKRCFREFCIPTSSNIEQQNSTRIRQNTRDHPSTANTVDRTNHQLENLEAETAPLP

How the values were obtained:
[1] = biological target: T1, human δ opioid receptor (Homo sapiens, UniProt P41143); test: Calcium mobilization assay, CHO cells with δ receptor and chimeric G protein; format: cell-based; settings: standard agonist
T1 construct: expressed in transfected cells
Experimental: (§1) Chinese hamster ovary (CHO) cells stably coexpressing the human NOP, μ, or κ opioid receptors and the Gαqi5 protein or the human δ and the GαqG66Di5 protein were used in this assay. , Cells were cultured in DMEM/F-12 (1:1) medium supplemented with 10% FBS, 2 mM L-glutamine, […], 100 IU/mL penicillin, and 100 IU/mL streptomycin. Cells were maintained at 37 °C in a humidified atmosphere with 5% CO2 and were seeded at 50 000 cells/well into 96-well black, clear-bottom plates 24 h before test. Loading for 45 min with a solution consisting of HBSS supplemented with 2.5 mM probenecid, 3 μM Fluo-4 AM, and 0.01% pluronic acid ensures the calcium-sensitive dye (Fluo-4) reaches the needed concentration inside the cell, while the exchange of the solution with 100 μL/well of buffer consisting of HBSS with 20 mM HEPES, 2.5 mM probenecid, and 500 μM Brilliant Black allows for fluorescence background to decrease. Serial dilutions of ligands were prepared in HBSS buffer with 20 mM HEPES and 0.02% bovine serum albumin (BSA) to minimize the ligands’ stickiness to plasticware. The automated microplate reader FlexStation II (Molecular Devices, CA, US) was employed at 37 °C to detect changes in fluorescence intensity. The effects of all compounds were expressed as the maximum change in percentage over the baseline fluorescence measured in samples treated with vehicles. […]

[2] = biological target: T2, human μ opioid receptor (Homo sapiens, UniProt P35372); test: Calcium mobilization assay, CHO cells with μ receptor and chimeric G protein; format: cell-based; settings: standard agonist
T2 construct: expressed in transfected cells
Experimental: as §1

Substance	stimulation of calcium release at δ receptor (in words) [1]	stimulation of calcium release at μ receptor (in words) [2]
[D-Pen^2,D-Pen^5]enkephalin [DPDPE]	robust concentration-dependent stimulation of calcium release	–
Dermorphin [reference compound]	–	robust concentration-dependent stimulation of calcium release
